# Measured values: PubChem BioAssay AID540275 (National Center for Advancing Translational Sciences (NCATS), 2011)
# Chains of the proteins cited; added tags and fusions are not shown.
# UniProt Q8NER1, whole entry: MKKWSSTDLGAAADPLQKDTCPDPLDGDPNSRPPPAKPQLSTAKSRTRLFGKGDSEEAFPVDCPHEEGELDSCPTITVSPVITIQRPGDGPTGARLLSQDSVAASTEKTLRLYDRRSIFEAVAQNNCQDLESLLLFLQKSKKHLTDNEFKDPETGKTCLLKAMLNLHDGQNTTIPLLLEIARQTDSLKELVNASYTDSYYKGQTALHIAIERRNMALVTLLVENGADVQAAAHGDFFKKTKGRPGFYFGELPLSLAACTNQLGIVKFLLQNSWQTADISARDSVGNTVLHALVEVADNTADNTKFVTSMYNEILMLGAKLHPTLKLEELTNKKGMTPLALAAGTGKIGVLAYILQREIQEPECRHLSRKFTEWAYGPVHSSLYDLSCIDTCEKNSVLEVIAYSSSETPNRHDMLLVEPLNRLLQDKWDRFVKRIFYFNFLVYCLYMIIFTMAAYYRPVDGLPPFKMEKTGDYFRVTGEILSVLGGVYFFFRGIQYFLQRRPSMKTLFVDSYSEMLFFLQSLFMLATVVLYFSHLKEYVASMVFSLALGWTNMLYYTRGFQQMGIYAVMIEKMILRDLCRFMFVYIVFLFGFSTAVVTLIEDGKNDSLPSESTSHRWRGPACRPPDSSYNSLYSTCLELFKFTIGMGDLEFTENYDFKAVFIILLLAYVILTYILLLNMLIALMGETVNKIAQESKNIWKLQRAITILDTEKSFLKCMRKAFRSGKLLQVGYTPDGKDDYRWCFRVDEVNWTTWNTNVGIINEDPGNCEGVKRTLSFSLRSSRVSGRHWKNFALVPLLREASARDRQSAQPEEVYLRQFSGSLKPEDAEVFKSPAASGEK
# The list shows a part of the results, in another mix than the full data. Records with an inconclusive call do not appear. Calls of active or inactive are those of the source. Cut-off read from the data, not from the text of the source: active = activation above about 80%; inconclusive = between about 30% and that limit; inactive = weaker than that.
# Molecular target: Transient receptor potential cation channel subfamily V member 1 (Homo sapiens) (UniProt Q8NER1)
# Assay: HTS Assay for Compounds that Act as Agonists of the Vanilloid Receptor 1; note: 0% is about no effect
# Details: TRPV1-expressing cells, Fluo-8 calcium influx, agonist mode; at 8.33 µM; stronger effect = higher value
# Description: The transient receptor potential ion channel, family V, number 1, (TRPV1) is one of the most important molecular transducers of painful stimuli and a potential target for analgesic drug development. Although recent clinical trials with orthosteric antagonists have not produced a successful drug because of a hyperthermia side effect and their tendency to block thermal noxious pain, this ion channel is undeniably well placed in the pain pathway, and the idea of blocking pain signals before they enter the CNS is an excellent concept and of proven efficacy when TRPV1 agonists are used. We propose a new approach involving allosteric modulation to impose an activity-dependent constraint within the context of inflammation and tissue damage that would alter the responsiveness of the channel in a way that an orthosteric vanilloid antagonist cannot achieve. We believe that the allosteric modulator approach has not been explored for this target. The main goal of this proposal is to identify additional, new, potent allosteric modulators of TRPV1 that can be used to investigate TRPV1 function. Our recent report provides evidence of proof of concept, but the compounds are just at the edge of utility in terms of potency. […] The question of whether they can be used as analgesic agents is complex, but if suitable compounds are identified then testing for analgesic properties will be conducted. NIH Chemical Genomics Center [NCGC] NIH Molecular Libraries Probe Centers Network [MLPCN] MLPCN Grant: MH089480-1A1 Assay Submitter (PI): Michael Iadarola, National Institute of Dental and Cranofacial Research
# Upon TRPV1 activation in TRPV1 cells, the channel opens and extracellular cations flow through the channel into the cytosol. A calcium binding dye (Fluo-8) becomes fluorescent when bound to calcium. This dye is pre-loaded into cells and is used as a marker for calcium influx. The amount of accumulated calcium is precisely quantified using the FDSS kinetic reader and the calcium dye. For the HTS assay, freshly prepared cells are plated at a density of 2000/well in 3 ul medium in 1536-well plates and cultured overnight at 35.5C. Cells will be loaded with 1 ul of the homogeneous calcium dye (ABD Bioquest) at room temperature for 40 to 90 minutes. Plates will be loaded into the FDSS kinetic reader and a 1 sec / cycle for 10 second baseline signal will be measured. Compound library will then be added with a pintool at 23 nl and measured kinetically for 3 minutes. This portion of the read is considered the agonist portion of the screen. Following the 3 minutes of incubation, an on board pipettor will deliver 1 ul of capsaicin for a final concentration equal to the EC20. Signal will be measured kinetically for an additional 2 minutes. This portion of the read is considered the allosteric enhancer portion of the screen. The FDSS reader has a standard filter set capable of measuring calcium bound Fluo-8 (ex=480 and em=520 nm).
row,SMILES,activation
1,CC1=C2N=C(C=C3N=C(C(C)=C4[N-][C@@](C)([C@@H]5N=C1[C@](C)(CCC(=O)NC[C@@H](C)OP(=O)([O-])O[C@H]1[C@@H](O)[C@@H](n6cnc7cc(C)c(C)cc76)O[C@@H]1CO)[C@H]5CC(N)=O)[C@@](C)(CC(N)=O)[C@@H]4CCC(N)=O)[C@@](C)(CC(N)=O)[C@@H]3CCC(N)=O)C(C)(C)[C@@H]2CCC(N)=O.[C-]#N.[Co+3],inactive: -1.81%
2,O=[N+]([O-])c1cc([N+](=O)[O-])c(Nc2nnnn2CCO)c([N+](=O)[O-])c1,inactive: -5.3%
3,CCCOc1ccc(NP(C)(=O)Oc2ccc(Cl)cc2)cc1 (stereo not drawn),inactive: 1.12%
4,CP(=O)(Nc1ccc(SC(F)(F)F)cc1)Oc1ccccc1 (stereo not drawn),inactive: 13.9%
5,CN1CCCCC1COC(=O)C1(O)c2ccccc2CCc2ccccc21 (stereo not drawn),inactive: -8.82%
6,COc1ccccc1OP(C)(=O)Nc1c(C)cccc1C (stereo not drawn),inactive: -3.55%
7,O=[N+]([O-])c1cc([N+](=O)[O-])c(-n2nnc3ccccc32)c([N+](=O)[O-])c1,inactive: -1.62%
8,Cc1nc2ccc3ccccc3c2s1.O=[N+]([O-])c1cc([N+](=O)[O-])c(O)c([N+](=O)[O-])c1,inactive: 4.08%
9,CCOC(=O)c1ccc(NP(C)(=O)Oc2cc(C)cc(C)c2)cc1 (stereo not drawn),inactive: 2.9%
10,Cc1cc(C)cc(OP(C)(=O)Nc2ccc(C)cc2C)c1 (stereo not drawn),inactive: -1.34%
11,COc1ccccc1OP(C)(=O)Nc1cccc(Br)c1 (stereo not drawn),inactive: -3.51%
12,Cc1ccc(C)c(NP(C)(=O)Oc2ccccc2)c1 (stereo not drawn),inactive: 6.6%
13,Cc1cc(C)cc(OP(C)(=O)Nc2ccccn2)c1 (stereo not drawn),inactive: -1.92%
14,CP(=O)(Nc1cccc(Br)c1)Oc1ccccc1 (stereo not drawn),inactive: 21.1%
15,CC1=NCCc2c1[nH]c1ccccc21.O=[N+]([O-])c1cc([N+](=O)[O-])c(O)c([N+](=O)[O-])c1,inactive: -1.66%
16,O=[N+]([O-])c1ccc2c(c1)C=Nc1ccccc1O2,inactive: 4.25%
17,CC(C)(C)c1ccc(OP(C)(=O)Nc2ccc(SC(F)(F)F)cc2)cc1 (stereo not drawn),inactive: 2.86%
18,Cc1cccc(C)c1OP(C)(N)=O (stereo not drawn),inactive: -2.51%
19,O=[N+]([O-])c1cc([N+](=O)[O-])c(Nc2cccnc2)c([N+](=O)[O-])c1,inactive: 2.86%
20,Cc1cc(C)cc(OP(C)(N)=O)c1 (stereo not drawn),inactive: -2.81%
21,COc1ccccc1OP(C)(=O)Nc1cc(Cl)ccc1C (stereo not drawn),inactive: -1.6%
22,COc1ccc(OP(C)(=O)Nc2cccc(F)c2)cc1 (stereo not drawn),inactive: -2.41%
23,COc1ccccc1OP(C)(=O)Nc1ccc(C)cc1 (stereo not drawn),inactive: -5.56%
24,Cc1ccc(NP(C)(=O)Oc2ccccc2)c(C)c1 (stereo not drawn),inactive: -1.67%
25,CCOC(=O)c1ccc(NP(C)(=O)Oc2ccccc2)cc1 (stereo not drawn),inactive: -3.14%
26,CCN(CC)CCCOC(=O)C(O)(c1ccccc1)c1ccccc1,inactive: -0.281%

row,SMILES,activation
1,CP(=O)(NC(=O)Nc1ccccc1)Oc1ccccc1 (stereo not drawn),inactive: -0.0434%
2,Cc1cc(C)cc(OP(C)(=O)Nc2ccc(SC(F)(F)F)cc2)c1 (stereo not drawn),inactive: 8.38%
3,CP(=O)(Nc1ccc(SC(F)(F)F)cc1)Oc1ccc(Cl)cc1 (stereo not drawn),inactive: 26.4%
4,Cc1cccc(C)c1OP(C)(=O)Nc1ccc(SC(F)(F)F)cc1 (stereo not drawn),inactive: 10.3%
5,CP(=O)(Nc1ccccn1)Oc1ccc(Cl)cc1 (stereo not drawn),inactive: 2.52%
6,CCOC(=O)c1ccc(NP(C)(=O)Oc2ccc(OC)cc2)cc1 (stereo not drawn),inactive: -4.8%
7,CCOP(C)(=S)SCC(=O)NC(C)C(=O)O (stereo not drawn),inactive: -1.47%
8,CP(=O)(Nc1ccccc1Br)Oc1ccccc1 (stereo not drawn),inactive: -4.74%
9,COc1ccccc1OP(C)(=O)Nc1ccccc1 (stereo not drawn),inactive: 1.23%
10,CP(=S)(Nn1cnnc1)Oc1ccccc1 (stereo not drawn),inactive: 1.37%
11,CCOC(=O)c1ccc(NP(C)(=O)Oc2ccc(Cl)cc2)cc1 (stereo not drawn),inactive: 4.99%
12,COc1ccccc1OP(C)(=O)Nc1c(C)n(C)n(-c2ccccc2)c1=O (stereo not drawn),inactive: -1.65%
13,O=C(OCCCN1CCCC1)C(O)(c1ccccc1)C1CCCCC1 (stereo not drawn),inactive: 2.84%
14,CP(=O)(Oc1ccccc1)N1CCOC1=O (stereo not drawn),inactive: 6.65%
15,CCc1ccc(OP(C)(=O)Nc2cccnc2)cc1 (stereo not drawn),inactive: 4.34%
16,CCN(CC)CC(O)COC(=O)C(O)(c1ccccc1)C1CCCCC1 (stereo not drawn),inactive: 3.73%
17,COc1ccc(OP(C)(=O)Nc2ccc(Br)cc2)cc1 (stereo not drawn),inactive: 2.93%
18,CN(C)C(=O)c1c([N+](=O)[O-])cc([N+](=O)[O-])cc1[N+](=O)[O-],inactive: 0.13%
19,COc1ccccc1OP(C)(=O)Nc1ccccc1Br (stereo not drawn),inactive: -1.04%
20,CC(C)(C)c1ccc(OP(C)(=O)O)cc1,inactive: 0.646%
21,CP(=O)(Nc1ccc(Cl)cc1)Oc1ccc(F)cc1 (stereo not drawn),inactive: 5.5%
22,COc1ccc(OP(C)(=O)Nc2ccccn2)cc1 (stereo not drawn),inactive: -3.26%
23,CN(C)CCOC(=O)C(O)(c1ccccc1)C1CCCC1 (stereo not drawn),inactive: 1.35%
24,COc1ccccc1OP(C)(=O)Nc1ccc(Br)cc1 (stereo not drawn),inactive: -15.2%
25,CP(=O)(Nc1ccccn1)Oc1ccccc1 (stereo not drawn),inactive: -2.71%
26,COc1ccccc1OP(C)(=O)Nc1ccc(C)cc1C (stereo not drawn),inactive: -1.64%

row,SMILES,activation
1,CCc1ccc(OP(C)(=O)O)cc1,inactive: -4.79%
2,Cc1c(NP(C)(=O)Oc2ccc(C(C)C)cc2)c(=O)n(-c2ccccc2)n1C (stereo not drawn),inactive: -1.47%
3,O=[N+]([O-])c1cc([N+](=O)[O-])c(Nc2ccccn2)c([N+](=O)[O-])c1,inactive: -0.412%
4,COc1ccccc1OP(C)(=O)Nc1ccc(C)c(C)c1 (stereo not drawn),inactive: 0.91%
5,COc1ccc(OP(C)(=O)Nc2ccccc2Br)cc1 (stereo not drawn),inactive: 2.16%
6,Cc1cc(C)cc(OP(C)(=O)Nc2cccc(C(F)(F)F)c2)c1 (stereo not drawn),inactive: 15.6%
7,CP(=O)(Nc1ccc(Cl)cc1Cl)Oc1ccccc1 (stereo not drawn),inactive: 0.742%
8,CP(=O)(OCCOc1ccccc1)OCCOc1ccccc1,inactive: 3.79%
9,Cc1nc2ccc3ccccc3c2o1.O=[N+]([O-])c1cc([N+](=O)[O-])c(O)c([N+](=O)[O-])c1,inactive: -1.1%
10,CCOC(=O)c1ccc(NP(C)(=O)Oc2ccc(F)cc2)cc1 (stereo not drawn),inactive: 2.94%
11,COc1ccc(OP(C)(=O)Nc2ccc(SC(F)(F)F)cc2)cc1 (stereo not drawn),inactive: 12.3%
12,CP(=O)(Nc1ccccc1)Oc1ccc(F)cc1 (stereo not drawn),inactive: 6.49%
13,CCCCCOc1ccc(NP(C)(=O)Oc2ccc(Cl)cc2Cl)cc1 (stereo not drawn),inactive: 8.79%
14,CCN(CC)CCCOC(=O)C(O)(c1ccccc1)C1CCCCC1 (stereo not drawn),inactive: -4.72%
15,CP(=O)(Nc1ccccc1F)Oc1ccccc1 (stereo not drawn),inactive: -0.748%
16,CC(C)c1ccc(OP(C)(=O)Nc2ccc(SC(F)(F)F)cc2)cc1 (stereo not drawn),inactive: 4.56%
17,O=C(OCCN1CCN(CCOCc2ccccc2)CC1)C(O)(c1ccccc1)c1ccccc1,inactive: -1.23%
18,CCOP(C)(=S)SCC(=O)NC(C)(CC)C(=O)O (stereo not drawn),inactive: 0.245%
19,CP(=O)(Nc1ccc(SC(F)(F)F)cc1)Oc1ccc(F)cc1 (stereo not drawn),inactive: 17%
20,Cc1ccccc1NP(C)(=O)Nc1ccccc1C,inactive: -0.661%
21,CP(=O)(Nc1ccc2c(c1)OCCO2)Oc1ccccc1 (stereo not drawn),inactive: 5.62%
22,CN(C)CCOC(=O)C(O)(c1ccccc1)C1CCCCC1 (stereo not drawn),inactive: 2.36%
23,COc1ccc(NP(C)(=O)Oc2ccccc2OC)cc1 (stereo not drawn),inactive: 2.72%
24,COc1ccc(OP(C)(=O)Nc2cccc(Br)c2)cc1 (stereo not drawn),inactive: 4.02%
25,O=[N+]([O-])c1ccc(OP2(=O)COCCO2)cc1 (stereo not drawn),inactive: 1.64%
26,Cc1cc(-c2cccc3ccccc23)c(C)cn1.O=[N+]([O-])c1cc([N+](=O)[O-])c(O)c([N+](=O)[O-])c1,inactive: 8.04%
